Our source for the Activity and inhibition values is ChEMBL document CHEMBL1770103, “Synthesis and biological evaluation of dibenz[b,f][1,5]oxazocine derivatives for agonist activity at κ-opioid receptor” (Eur J Med Chem, 2011).

By UniProt entry, the sequences of proteins in these tests, tags left out. Where a name states a change or a piece, a line headed by the entry shows the natural chain unless it says otherwise.
UniProt P34975: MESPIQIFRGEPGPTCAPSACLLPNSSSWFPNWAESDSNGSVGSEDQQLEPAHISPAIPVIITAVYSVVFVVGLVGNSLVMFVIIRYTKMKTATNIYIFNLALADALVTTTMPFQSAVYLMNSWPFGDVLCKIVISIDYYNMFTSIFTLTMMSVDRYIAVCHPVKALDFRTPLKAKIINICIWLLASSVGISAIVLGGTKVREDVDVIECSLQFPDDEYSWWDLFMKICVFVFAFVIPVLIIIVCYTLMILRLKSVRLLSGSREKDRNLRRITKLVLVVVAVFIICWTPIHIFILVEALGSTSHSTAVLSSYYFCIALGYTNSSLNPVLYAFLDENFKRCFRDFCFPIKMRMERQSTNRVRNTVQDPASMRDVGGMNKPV
UniProt P33534: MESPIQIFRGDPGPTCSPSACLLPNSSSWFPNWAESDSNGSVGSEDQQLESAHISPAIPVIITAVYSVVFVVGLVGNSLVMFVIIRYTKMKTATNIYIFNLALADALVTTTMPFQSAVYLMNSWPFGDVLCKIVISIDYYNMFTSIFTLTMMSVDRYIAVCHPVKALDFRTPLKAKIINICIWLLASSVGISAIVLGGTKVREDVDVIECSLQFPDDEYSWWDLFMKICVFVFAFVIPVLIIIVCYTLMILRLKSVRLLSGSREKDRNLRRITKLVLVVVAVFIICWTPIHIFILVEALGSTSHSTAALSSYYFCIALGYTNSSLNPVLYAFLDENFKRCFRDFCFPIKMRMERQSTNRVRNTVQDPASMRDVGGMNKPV

Activity calls are given as the source filed them. The rule behind the calls is not given here.

In assay [1] the target is Kappa-type opioid receptor (Rattus norvegicus) (UniProt P34975). In words: Agonist activity at kappa opioid receptor in rat C6 cells assessed as induction of ERK1/2 phosphorylation at 1 uM after 10 min by Western blot analysis.
Assay [2] deals with Kappa-type opioid receptor (Mus musculus) (UniProt P33534). The assay is described as follows: Displacement of [125I]dynorphin from kappa opioid receptor in BALB/c mouse brain membrane at 5 uM by liquid scintillation counting relative to control. It counts as cell membranes. (In general: In a radioligand displacement assay an active substance lowers the binding of a labelled ligand.)

Take `CN(C(=O)Cc1ccc(Cl)c(Cl)c1)C1CCCCC1N1CCCC1` (configuration not stated): the outcome in assay [1] was Active. Also, in assay [2], the inhibition amounted to 50%.

By inhibition is commonly meant how much of the control response was suppressed.
